## Apparent affinities of Ab-14 variants for a coronavirus HR2 peptide

Source: Li et al. 2023 (doi:10.1038/s41467-023-39022-2), MIT Lincoln Laboratory and A-Alpha Bio; data file from the FLAb repository.

All variants were tested on one target, the spike HR2 peptide PDVDLGDISGINAS (SARS-CoV-2).

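The parent was found by panning a naive human phage display library on the peptide. The variants were designed computationally from a first round of random CDR variants and then made and measured. Their group label is 14L_En_HC (En: ensemble of fine-tuned language models; HC: hill climbing; a sequence that several methods proposed may carry one label only). AlphaSeq pools MATa yeast showing the antibodies with MATalpha yeast showing the peptide. The frequency of each diploid, read from paired DNA barcodes, reflects how well the two displayed proteins bind. Scores were corrected for input abundance and mapped to Kd with protein pairs of known affinity run in the same pool. Each pool was mated in six replicate cultures.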

Each scFv is VH, a 15-residue (Gly4Ser)3 linker, VL, as in the parent Ab-14, and differs from it in the CDRs of the light chain only.
VH: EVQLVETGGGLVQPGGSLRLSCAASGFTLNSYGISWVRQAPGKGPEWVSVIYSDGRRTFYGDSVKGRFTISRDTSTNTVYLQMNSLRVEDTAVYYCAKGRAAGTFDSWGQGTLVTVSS
VL: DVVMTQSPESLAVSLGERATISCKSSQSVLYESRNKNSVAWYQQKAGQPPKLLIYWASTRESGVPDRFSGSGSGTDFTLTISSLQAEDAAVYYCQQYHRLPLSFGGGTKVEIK

The parent's light chain CDRs are KSSQSVLYESRNKNSVA, WASTRES, QQYHRLPLS; each variant's own CDRs replace them letter for letter. Values are log10 of the apparent Kd in nM; lower means stronger binding. Replicates are averaged; those with no signal do not enter the mean. An entry "nd" has no value in the source: the pair was not observed among the diploids in that replicate. This suggests poor binding but is not conclusive.

With SIAESVHMESRNKNSVA, DNSTRES, QHYHRLPLS the result was nd, 2.35, nd, 3.10, nd, nd (mean 2.73; controls 1 of 18).
With KIMQSLNYEQFNVSNVA, GQETRED, QSYHRLPLS the result was 0.95, 1.42, 0.85, 1.39, 1.29, 1.40 (mean 1.22; controls 0 of 18).
With TIAQSVNMTSHGRNSVA, QAEMRES, QQYDRLPLS the result was nd, nd, 1.60, 2.13, 3.35, nd (mean 2.36; controls 0 of 18).
With ILSQSVMMGMHLKNSVA, QATMRFN, QQYHRLPLM the result was nd, nd, nd, nd, 1.32, 1.40 (mean 1.36; controls 0 of 18).
With HISQSVGMTSRNKNSVA, ENSTRED, QQYDRLPLS the result was 1.07, 1.14, 2.67, 1.02, 1.48, 1.40 (mean 1.46; controls 2 of 18).
With KLSMVTNQEHKVKNSIA, EMVTREK, QQYDRLPLE the result was 1.72, 1.59, 0.85, 1.43, 1.52, 2.00 (mean 1.52; controls 3 of 18).
With ILSQSVLMGSHLKNSVA, QAQTRES, QQYHRLPLS the result was 0.79, 0.61, 0.63, 0.76, 0.74, 0.93 (mean 0.74; controls 0 of 18).
With MITMGLRGVGRNKNSVA, NAQTRES, QHYHRLPLS the result was 1.81, 1.87, 1.74, 1.40, 1.82, 1.88 (mean 1.75; controls 0 of 18).
With KLIQSVAMSSRNKDSIA, DNSTREY, QQYHRLPLS the result was 1.12, 1.80, 1.42, 2.18, 1.36, 1.15 (mean 1.50; controls 0 of 18).
With KISQSVNFFGHAINSVA, EMETREN, QQYDRLPLS the result was 1.06, 1.18, 1.45, 0.85, 0.89, 1.37 (mean 1.13; controls 1 of 18).
With TIGQSVHETTRIKNSVA, HATMRED, QQYDRLPLS the result was 0.63, 0.98, 0.53, 1.58, 1.17, 1.47 (mean 1.06; controls 0 of 18).
With KISMAVTFETRNKNSVA, ENSTRES, QSYHRLPLS the result was nd, nd, nd, nd, nd, nd (controls 0 of 18).
With HITQSVGMTIRNKNSVA, ENSTRED, QQYDRLPLS the result was nd, nd, nd, 0.77, nd, nd (controls 0 of 18).
With QIYHGVTGTSRKGNSVA, QAETRLD, QQYHRLPLM the result was 2.10, nd, 1.00, 1.21, nd, 1.88 (mean 1.55; controls 0 of 18).
With TISQSAMMESHNKNSVA, DLNLRGS, QQYDRLPLS the result was 0.94, 2.22, 1.42, 1.16, 1.42, 1.00 (mean 1.36; controls 2 of 18).
With NFSQMVSTGMTLRNSVA, HASTRFN, QQYHRLPLI the result was 0.91, 0.85, 0.96, 1.90, 1.15, 2.01 (mean 1.30; controls 0 of 18).
With NLSLSMLHESINKHSVA, EVRTRES, QQYDRLPLS the result was 0.88, 0.68, 0.34, 0.76, 1.04, 0.96 (mean 0.78; controls 0 of 18).
With HISYSMAHLSRNKNSVA, NQQTREQ, QQYHRLPLS the result was 1.25, 1.55, 1.32, 1.37, 1.55, 1.98 (mean 1.50; controls 2 of 18).
With KISQLFNVGTKNTNSLA, EMNTRGM, QDYHRLPLS the result was 1.33, 1.04, 1.45, 1.15, 0.98, 1.26 (mean 1.20; controls 1 of 18).
With RISASVNYEMVNGQSVA, QMSTREE, QQYDRLPLS the result was 0.80, 1.31, 0.99, 0.67, 0.67, 0.98 (mean 0.90; controls 0 of 18).
With KLSATYRFESQNKNSIA, EMTTREE, QCYHRLPLS the result was 1.23, 1.41, 2.06, nd, 0.78, 2.40 (mean 1.58; controls 0 of 18).
With KLYMMTGIESHAKNSLA, DANRRED, QQYHRLPLS the result was 0.39, 0.71, 0.87, 0.60, 0.43, 0.91 (mean 0.65; controls 0 of 18).
With TISQSVNMTSHGRNSVA, QAEMRES, QQYDRLPLS the result was 1.25, nd, 1.06, nd, nd, nd (mean 1.16; controls 0 of 18).
With TISQMFWGESRNRNSVA, QASTRES, QSYDRLPLS the result was 1.54, 0.76, 0.83, 2.96, 0.96, 0.78 (mean 1.30; controls 1 of 18).
With KLGQTVGYEQRNKSRVA, DNSTRES, QQYDRLPLS the result was 3.05, 2.74, 2.37, 1.95, 2.47, 2.76 (mean 2.56; controls 0 of 18).
With MISQSFLIGMKMKNSVA, QTSTREE, QQYDRLPLI the result was 0.98, 0.74, 0.67, 0.53, 0.90, 0.58 (mean 0.73; controls 0 of 18).
With MLSDLVKMGSRNTNSVA, DNSTRGA, QQYDRLPLS the result was nd, nd, 1.88, nd, nd, 2.01 (mean 1.94; controls 1 of 18).
With MISESVMYESRNRNSVA, DNSTRER, QCYDRLPLS the result was 1.21, 1.65, 1.33, 1.51, 1.63, 2.09 (mean 1.57; controls 2 of 18).
With MISDLMLQGSRNKNPIA, NASTREY, QQYHRLPLE the result was 1.95, 1.88, 2.67, nd, nd, 2.04 (mean 2.13; controls 0 of 18).
With KLREVIHVESKQKNNVA, DNSTRED, QDYHRLPLS the result was 1.36, 1.46, 1.00, 1.46, 1.68, 1.14 (mean 1.35; controls 0 of 18).
With MISQSFLIGMKAKNSVA, QTSTREA, QQYDRLPLA the result was 0.44, 0.67, 0.68, 0.51, 0.34, 0.51 (mean 0.52; controls 3 of 18).
With TLSDVMYMESRNVNSVA, DLVKRES, QQYHRLPLS the result was 0.28, 0.00, 0.19, 0.06, 0.21, 0.32 (mean 0.17; controls 4 of 18).
With NVGQSMDGELRNKNSVA, HQSTRED, QHYHRLPLS the result was 0.37, 1.09, 0.88, 1.87, 1.51, 0.90 (mean 1.10; controls 1 of 18).
With ILSQSVLMGSHLKNNVA, QASTRFN, QQYHRLPLS the result was nd, 3.32, nd, nd, nd, nd (controls 0 of 18).
With KLSQSVLFWGKAINSVA, EMETREY, QQYDRLPLS the result was nd, 2.89, 2.16, 1.39, 2.33, 1.91 (mean 2.14; controls 0 of 18).
With TISQMTYWESRNKNSVA, QTSTREE, QDYDRLPLS the result was 1.02, 2.16, 1.21, 1.55, 1.43, 1.53 (mean 1.48; controls 0 of 18).
With NFSQMVLTGWTLKNSVA, HASTREE, QQYHRLPLI the result was 1.10, 0.81, 1.01, 1.11, 0.75, 0.92 (mean 0.95; controls 2 of 18).
With IISQSVMFQQTLINSVA, NAQTREQ, QQYHRLPLS the result was 0.82, 0.46, 0.15, -0.02, 0.11, 0.29 (mean 0.30; controls 0 of 18).
With HISMMVGTKGYNKNSVA, NEETRED, QQYHRLPLS the result was 1.11, 1.51, 0.97, 1.16, 1.30, 1.96 (mean 1.33; controls 3 of 18).

The range of this assay differs from that of the first round, and the authors advise against merging the two. Empty control strains, which show no peptide, gave a signal in 4% of pairings with all light chain designs; the median was 2.64 and 95% of these signals were weaker than 1.59. No background was subtracted. The control count says in how many pairings with the empty strains this scFv gave a signal. In the paper, a design with two or fewer of six values counts as a poor binder. The parent sequence was in this pool as ten entries: three were never detected, three once, and four in most replicates, with averages from 0.34 to 2.37.